Data on 8 molecules can be found in patent publication US11484521B2, “Antidotes to cyanide poisoning” (dated 2022).

Like-named read-outs stand apart in the source and are kept apart here.

Data set [1] deals with zebrafish exposed to 100 μM KCN. The conditions noted are these: for cyanide antidote activity / EC100, dose that rescued 100% of zebrafish: challenge with 100 μM KCN, complex dissolved in DMSO; for cyanide antidote activity: doses 1-1000 μM.
For data set [2], the system named is pigs exposed to a lethal dose of cyanide. The data set can be described thus: Swine cyanide model. The conditions noted are these: 20 mg/kg IM, n=3.
A short description of data set [3]: Reported acute toxicity in mice (LD50). The conditions noted are these: LD50 ratio.
Data set [4] has as its system rabbits exposed to a lethal dose of cyanide. The data set can be described thus: Rabbit lethal cyanide model, intramuscular antidote. The following applies: HCP at t=40, DOS.
Data set [5] in a line: UV-VIS spectral assay of cyanide binding. The conditions noted are these: 1 mM complex, 5 mM cyanide; 7 in PBS, 37 in water, 36 dissolved in DMSO and assayed in water.
The subject of data set [6] is zebrafish exposed to 100 μM KCN. The data set can be described thus: Zebrafish survival assay, rescue from 100 μM KCN (EC100). The following applies: challenge with 100 μM KCN; complex dissolved in DMSO; doses 1-1000 μM.

As for satraplatin, the “cyanide antidote activity” value in data set [1] is listed as “not a cyanide antidote”.
Turning to `[Cl][Pt]([Cl])([Cl])([Cl])([Cl])[Cl]`, in data set [2], the “survival to the endpoint of the study, 110 minutes after commencing cyanide infusion” value is listed as “all survived”. Moreover, in data set [3], the “acute toxicity dose in mice relative to cisplatin” value is 20 fold. Besides, the “cytochrome c oxidase redox state in muscle” value in data set [4] is “plateaus after antidote injection”.
Take “cis-diamminechloro(dimethylsulfoxide)platinum(II)”: the “cyanide antidote activity” value in data set [1] (listed as 36) is given as “is a cyanide antidote”. The “reaction rate with cyanide” value in data set [5] worked out at 0.367 AU/min.
Regarding carboplatin, the “cyanide antidote activity” value in data set [6] is given as “not a cyanide antidote”.
Consider hydroxocobalamin, for which, in data set [1], the “EC100, dose that rescued 100% of zebrafish” value was determined as 100 µM.
Regarding transplatin, the “cyanide antidote activity” value in data set [1] is “equipotent antidotes”.
Regarding cis-diamminedichloroplatinum(II), in data set [1], the “EC100, dose that rescued 100% of zebrafish” value turned out to be 125 µM and the “cyanide antidote activity” value is on record as “equipotent antidotes”. In addition, the “reaction rate with cyanide” value in data set [5] was 0.021 AU/min.
In the case of Zeise's salt, in data set [1] (100 μM KCN, PBS versus DMSO solvation), the “dose required in PBS relative to DMSO” value is recorded as 8 fold.
